From article PMC6447837 (Cancer Science, 2019) come the findings set out here.

Chains of the proteins cited; added tags and fusions are not shown. Lines headed by an entry give the natural chain unless they say otherwise; changes in a name come on top.
UniProt P42685: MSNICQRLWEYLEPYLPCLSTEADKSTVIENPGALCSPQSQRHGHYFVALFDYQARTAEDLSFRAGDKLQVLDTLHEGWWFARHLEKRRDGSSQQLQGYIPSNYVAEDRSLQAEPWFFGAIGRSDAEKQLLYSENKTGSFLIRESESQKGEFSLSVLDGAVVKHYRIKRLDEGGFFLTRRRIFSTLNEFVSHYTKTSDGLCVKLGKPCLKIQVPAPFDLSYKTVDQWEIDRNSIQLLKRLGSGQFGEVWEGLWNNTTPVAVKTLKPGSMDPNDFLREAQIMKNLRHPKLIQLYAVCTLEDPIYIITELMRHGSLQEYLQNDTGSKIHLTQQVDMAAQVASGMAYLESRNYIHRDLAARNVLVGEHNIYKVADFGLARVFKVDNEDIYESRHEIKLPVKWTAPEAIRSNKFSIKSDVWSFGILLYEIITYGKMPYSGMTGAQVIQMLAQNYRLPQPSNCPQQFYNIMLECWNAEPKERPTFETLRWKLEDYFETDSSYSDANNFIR

The term IC50 denotes the midpoint of a concentration-inhibition curve. The low end stands for greater potency, the high end for weaker potency.

One experiment deals with PTK5 (Homo sapiens, UniProt P42685). The experiment is described as follows: Radiometric kinase IC50 assay. The format is biochemical.
The test system of a further experiment is Capan‐1. Description: MTT antiviability assay. The note with it: Homo sapiens, CAPAN-1, 72 h.
A further experiment concerns Src. Description: Immunohistochemistry of xenograft tumor tissues. The format is in vivo, NOD‐SCID mice. The note with it: Aspc‐1 and Bxpc‐3 models; LY‐1816 and dasatinib 40 mg/kg/d p.o., gemcitabine 80 mg/kg/wk; IHC.

Take `Cc1ccc(NC(=O)c2ccc(C)c(C(F)(F)F)c2)cc1C#Cc1nn(C2CCC(O)CC2)c2ncnc(N)c12` (stereo not drawn) [LY‐1816, N‐(3‐((4‐amino‐1‐(4‐hydroxycyclohexyl)‐1H‐pyrazolo[3,4‐d]pyrimidin‐3‐yl)ethynyl)‐4‐methylphenyl)‐4‐methyl‐3‐(trifluoromethyl)benzamide]: the IC50 against PTK5 is 19 nM; with Capan‐1, 255 ± 26 nM.

`Cc1nc(Nc2ncc(C(=O)Nc3c(C)cccc3Cl)s2)cc(N2CCN(CCO)CC2)n1` [dasatinib]: the “phosphorylation of Src in tumor tissues” value in the experiment with Src is given as “downregulated the phosphorylation of Src”.
